The values below come from patent publication US10494365B2, “Small molecule inhibitor of 3-phosphoglycerate dehydrogenase and uses thereof” (The Scripps Research Institute, priority 2015, dated 2019).

Molecules are shown by their SMILES.

In one assay the test system is Carney cells. Nature of the assay: Acute drug treatment with 13C6-glucose tracing (GCMS, LC-MS/MS). As to conditions: 3-hour compound treatment. It is filed as cell-based.
Assay [1] relates to three lines sensitive to serine withdrawal. As to conditions: serine replete media.

With `CCOC(=O)c1sc(NC(=O)c2ccco2)c(SC#N)c1C` [Compound (1), Ethyl 5-(furan-2-carboxamido)-3-methyl-4-thiocyanatothiophene-2-carboxylate], in the assay on Carney cells, the “decrease of de novo serine synthesis” value was found to be 30%. In addition, in assay [1], the effect on growth result is on record as “no effect”.
